Values quoted from earlier work in paper PMC6005658 (Bioorganic & medicinal chemistry, 2017).

Test system: κ opioid receptors in brain

[N^α-benzyl-Tyr^1,cyclo(D-Asp^5,Dap^8)]Dyn A-(1–11)NH2 [zyklophin]
blood-brain barrier crossing: can cross the blood-brain barrier
